Measurements taken from patent publication US20080092250A1, “Activity-induced pain in animal model of osteoarthritis” (priority 2006, published 2008).

Test system: rats
Details: i.a. administration, 3 mg, 28-day study
Description: All experiments have been approved by the Institutional Animal Care and Use Committee (IACUC) at Abbott Laboratories and are in strict accordance with the ethical guidelines laid down by the International Association for the Study of Pain (IASP) (Zimmermann, 1983) for the care and use of laboratory animals. […] Following injection, the animals were allowed to recover from the effects of anesthesia (usually 5-10 mins) before returning to their home cages. […] Animals were euthanized by CO2 inhalation on day 20. The injected knee joints were dissected and immediately fixed in 10% phosphate buffered formalin. The samples were then decalcified in 5% formic acid for 3 days, routinely processed and then embedded in paraffin wax. Frontal histologic sections of the femorotibial joints (6 μm) were prepared, stained with toluidine-blue and examined with a light microscope (Guzman et al., 2003).
Measurements of peak hind limb grip force were conducted by recording the maximum compressive force exerted on the hind limb strain gauge setup, in a commercially available grip force measurement system (Columbus Instruments, Columbus, Ohio). […] Additional tests were performed 1, 2, 4, 7, 10, 13, 17, 21, 24, and 28 days following the injections.

sodium monoiodoacetate [MIA]
effect on general health of the animals: no effect
